The record followed here is US20150105317A1.

As usually defined, the IC50 is the concentration that inhibits the measured activity by half.

This assay concerns the target T1, Human macrophage mannose receptor 1 (MRC1) (human) (UniProt P22897).
T1 sequence (looked up): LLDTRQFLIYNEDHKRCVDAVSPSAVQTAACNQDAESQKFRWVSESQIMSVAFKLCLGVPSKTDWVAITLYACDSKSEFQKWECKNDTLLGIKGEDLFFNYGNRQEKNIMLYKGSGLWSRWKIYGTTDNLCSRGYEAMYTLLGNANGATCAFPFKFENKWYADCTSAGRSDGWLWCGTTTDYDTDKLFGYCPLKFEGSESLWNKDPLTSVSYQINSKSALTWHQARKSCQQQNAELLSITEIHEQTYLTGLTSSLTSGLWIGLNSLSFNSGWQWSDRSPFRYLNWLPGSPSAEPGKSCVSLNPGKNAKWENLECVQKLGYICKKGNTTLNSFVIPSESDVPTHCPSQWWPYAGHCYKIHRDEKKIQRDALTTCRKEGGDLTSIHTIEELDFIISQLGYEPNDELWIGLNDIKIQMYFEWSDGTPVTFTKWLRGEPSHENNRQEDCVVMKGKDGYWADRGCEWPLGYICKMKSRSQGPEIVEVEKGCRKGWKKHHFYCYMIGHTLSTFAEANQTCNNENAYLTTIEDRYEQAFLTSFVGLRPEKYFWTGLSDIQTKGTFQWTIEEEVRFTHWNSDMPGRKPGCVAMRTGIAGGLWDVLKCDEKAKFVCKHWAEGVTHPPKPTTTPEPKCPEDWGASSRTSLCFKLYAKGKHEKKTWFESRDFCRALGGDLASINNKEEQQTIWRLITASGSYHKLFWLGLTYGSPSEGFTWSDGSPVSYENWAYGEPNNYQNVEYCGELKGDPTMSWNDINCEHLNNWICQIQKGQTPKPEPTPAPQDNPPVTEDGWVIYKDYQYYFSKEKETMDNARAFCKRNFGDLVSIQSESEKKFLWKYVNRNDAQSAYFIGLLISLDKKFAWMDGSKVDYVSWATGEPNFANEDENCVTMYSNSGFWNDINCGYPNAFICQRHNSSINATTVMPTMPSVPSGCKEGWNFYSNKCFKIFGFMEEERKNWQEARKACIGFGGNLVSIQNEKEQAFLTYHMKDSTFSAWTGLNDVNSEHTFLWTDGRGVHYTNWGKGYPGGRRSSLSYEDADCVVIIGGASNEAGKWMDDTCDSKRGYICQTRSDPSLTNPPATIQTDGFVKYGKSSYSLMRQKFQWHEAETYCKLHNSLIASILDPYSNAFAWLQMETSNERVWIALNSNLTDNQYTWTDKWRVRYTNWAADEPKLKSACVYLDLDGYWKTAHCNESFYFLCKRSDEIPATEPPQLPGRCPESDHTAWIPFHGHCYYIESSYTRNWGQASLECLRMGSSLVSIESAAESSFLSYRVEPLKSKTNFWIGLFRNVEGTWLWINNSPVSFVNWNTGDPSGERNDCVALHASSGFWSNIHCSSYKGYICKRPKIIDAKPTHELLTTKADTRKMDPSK
Nature of the assay: Eu-mannosylated-BSA competition, captured MRC1 (Method F).

In the case of “N^εB29-6-((((2-oxo-2-((α-D-mannopyranosyl-(1→3)-[α-D-mannopyranosyl-(1→6)]-α-D-mannopyranosyl)-2-oxyethyl)amino)(2-oxo-2-((α-L-fucopyranosyloxy)-2-oxoethyl)amino)ethyl)amino)acetamido)-6-oxohexanoyl Human Insulin (ligand)”, the IC50 is 7.95 nM.
